Laboratory results reported in US20240067633A1, “KETOHEXOKINASE INHIBITOR AND USE THEREOF” (SICHUAN HAISCO PHARMACEUTICAL CO., LTD., priority 2020, published 2024).

Amino acid sequences for entries named in this document (tags omitted). A change or cut given only in a name is not applied to a line headed by its entry.
UniProt P05177, whole entry: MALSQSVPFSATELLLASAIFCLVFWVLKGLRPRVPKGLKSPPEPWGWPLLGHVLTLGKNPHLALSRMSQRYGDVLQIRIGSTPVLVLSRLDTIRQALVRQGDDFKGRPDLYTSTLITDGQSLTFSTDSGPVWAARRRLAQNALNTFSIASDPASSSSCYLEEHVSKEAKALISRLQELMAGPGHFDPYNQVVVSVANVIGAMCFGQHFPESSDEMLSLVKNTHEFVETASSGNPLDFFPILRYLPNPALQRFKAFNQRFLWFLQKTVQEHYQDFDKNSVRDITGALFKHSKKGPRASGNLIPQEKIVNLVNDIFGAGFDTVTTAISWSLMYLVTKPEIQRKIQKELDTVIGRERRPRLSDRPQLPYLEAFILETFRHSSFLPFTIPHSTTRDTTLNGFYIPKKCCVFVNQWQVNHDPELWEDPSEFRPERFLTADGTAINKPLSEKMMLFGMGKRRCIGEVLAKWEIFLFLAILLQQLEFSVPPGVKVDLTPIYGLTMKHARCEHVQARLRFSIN
UniProt P33261, whole entry: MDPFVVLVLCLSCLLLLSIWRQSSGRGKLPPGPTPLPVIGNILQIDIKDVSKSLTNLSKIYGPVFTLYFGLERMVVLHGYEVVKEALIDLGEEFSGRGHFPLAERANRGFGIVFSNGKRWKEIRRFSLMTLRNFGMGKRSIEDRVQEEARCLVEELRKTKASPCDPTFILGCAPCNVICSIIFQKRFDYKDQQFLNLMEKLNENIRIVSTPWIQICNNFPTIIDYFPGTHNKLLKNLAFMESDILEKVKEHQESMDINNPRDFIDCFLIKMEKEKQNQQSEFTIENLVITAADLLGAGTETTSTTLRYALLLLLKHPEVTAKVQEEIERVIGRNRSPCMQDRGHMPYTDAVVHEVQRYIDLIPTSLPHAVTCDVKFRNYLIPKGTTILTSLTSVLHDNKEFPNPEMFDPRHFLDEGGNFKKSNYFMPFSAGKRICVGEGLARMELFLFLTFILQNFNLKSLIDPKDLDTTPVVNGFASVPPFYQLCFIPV
UniProt P11712, whole entry: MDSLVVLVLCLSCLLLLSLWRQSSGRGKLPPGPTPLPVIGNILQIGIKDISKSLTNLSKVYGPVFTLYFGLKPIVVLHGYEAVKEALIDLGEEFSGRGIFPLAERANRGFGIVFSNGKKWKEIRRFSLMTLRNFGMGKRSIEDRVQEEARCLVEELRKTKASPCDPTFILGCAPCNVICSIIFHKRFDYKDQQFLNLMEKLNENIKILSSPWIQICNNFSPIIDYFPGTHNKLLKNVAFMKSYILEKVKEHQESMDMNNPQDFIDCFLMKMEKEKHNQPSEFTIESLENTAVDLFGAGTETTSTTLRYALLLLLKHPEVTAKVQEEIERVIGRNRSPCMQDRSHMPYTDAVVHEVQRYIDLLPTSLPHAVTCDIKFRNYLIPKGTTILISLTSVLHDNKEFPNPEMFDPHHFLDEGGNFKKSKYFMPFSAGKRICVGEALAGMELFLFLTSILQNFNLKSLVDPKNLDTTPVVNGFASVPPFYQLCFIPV
UniProt Q12809: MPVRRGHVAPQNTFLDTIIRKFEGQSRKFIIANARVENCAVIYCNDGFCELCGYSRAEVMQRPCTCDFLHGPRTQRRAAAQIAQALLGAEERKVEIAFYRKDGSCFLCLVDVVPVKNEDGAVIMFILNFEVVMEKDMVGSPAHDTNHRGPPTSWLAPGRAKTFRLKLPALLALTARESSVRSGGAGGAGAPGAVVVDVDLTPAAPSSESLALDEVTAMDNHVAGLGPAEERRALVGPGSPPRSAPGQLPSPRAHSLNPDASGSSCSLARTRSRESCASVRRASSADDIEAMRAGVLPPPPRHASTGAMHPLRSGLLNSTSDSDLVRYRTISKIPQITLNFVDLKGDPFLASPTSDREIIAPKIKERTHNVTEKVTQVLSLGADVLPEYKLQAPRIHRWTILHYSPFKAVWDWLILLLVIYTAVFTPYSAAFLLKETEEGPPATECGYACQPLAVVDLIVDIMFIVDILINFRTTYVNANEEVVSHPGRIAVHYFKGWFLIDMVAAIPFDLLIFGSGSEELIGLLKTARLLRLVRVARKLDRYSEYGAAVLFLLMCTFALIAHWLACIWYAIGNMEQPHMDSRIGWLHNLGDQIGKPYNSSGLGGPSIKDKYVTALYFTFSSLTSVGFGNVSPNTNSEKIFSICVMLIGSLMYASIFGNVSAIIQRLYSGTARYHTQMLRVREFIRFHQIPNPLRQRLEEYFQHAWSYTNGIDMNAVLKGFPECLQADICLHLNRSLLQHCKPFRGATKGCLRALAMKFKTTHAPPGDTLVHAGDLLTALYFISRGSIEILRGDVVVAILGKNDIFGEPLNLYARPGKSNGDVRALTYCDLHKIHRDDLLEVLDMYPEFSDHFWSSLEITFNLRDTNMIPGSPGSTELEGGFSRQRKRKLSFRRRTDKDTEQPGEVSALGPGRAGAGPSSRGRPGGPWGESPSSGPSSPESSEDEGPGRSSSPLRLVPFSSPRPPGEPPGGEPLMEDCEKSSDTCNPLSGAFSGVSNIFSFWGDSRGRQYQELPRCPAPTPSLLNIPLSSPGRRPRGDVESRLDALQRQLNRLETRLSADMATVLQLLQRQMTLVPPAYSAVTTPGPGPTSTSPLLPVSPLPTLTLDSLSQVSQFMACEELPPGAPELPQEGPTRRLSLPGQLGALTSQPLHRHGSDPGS

Tests used:
CYP1A2 = CYP1A2 (Homo sapiens (Human), UniProt P05177); assay type: in vitro ADME; settings: microsomes
Description: (§1) In this test, after the mixed human liver microsomes were incubated with isomer 2 of compound 20 at different concentrations (0.05-50 μM) and corresponding probe drugs, the changes of CYP enzyme activity were measured, and the IC50 value was calculated to evaluate the inhibition potential of isomer 2 of compound 20 on each CYP enzyme.

CYP2C19 = CYP2C19 (Homo sapiens (Human), UniProt P33261); assay: CYP450 enzyme inhibition test, mixed human liver microsomes; assay type: in vitro ADME; settings: 0.05-50 μM
Description: as §1

CYP2C9 = CYP2C9 (Homo sapiens (Human), UniProt P11712); assay: as above; assay type: in vitro ADME; settings: 0.05-50 μM
Description: as §1

hERG potassium channel = hERG potassium channel (Homo sapiens (Human), UniProt Q12809); assay: Test for hERG potassium ion channel, manual patch-clamp in CHO cells; assay type: cell-based
Text: Test platform: electrophysiological manual patch-clamp system
Cell line: Chinese hamster ovary (CHO) cell lines stably expressing hERG potassium ion channel
Test method: In CHO (Chinese Hamster Ovary) cells stably expressing hERG potassium channel, whole cell patch-clamp technique was used to record hERG potassium channel current at room temperature. The glass microelectrode was made of a glass electrode blank (BF150-86-10, Sutter) by a puller. The tip resistance after filling the liquid in the electrode was about 2-5 MΩ. The glass microelectrode can be connected to the patch-clamp amplifier by inserting the glass microelectrode into an amplifier probe. The clamping voltage and data recording were controlled and recorded by the pClamp 10 software through a computer. The sampling frequency was 10 kHz, and the filtering frequency was 2 kHz. After the whole cell records were obtained, the cells were clamped at −80 mV, and the step voltage that induced the hERG potassium current (IhERG) was depolarized from −80 mV to +20 mV for 2 s, then repolarized to −50 mV, and returned to −80 mV after 1 s. This voltage stimulation was given every 10 s, and the administration process was started after the hERG potassium current was confirmed to be stable (at least 1 minute). The compound was administered for at least 1 minute at each test concentration, and at least 2 cells (n>2) were tested at each concentration.
Data processing: Data analysis processing was carried out by using pClamp 10, GraphPad Prism 5 and Excel software. The inhibition degree of hERG potassium current (peak value of hERG tail current induced at −50 mV) at different compound concentrations was calculated by the following formula:
Inhibition %=[1−(I/Io)]×100%
Among the formula, Inhibition % represents the percentage of inhibition of hERG potassium current by the compound, and I and Io represent the amplitude of hERG potassium current after and before dosing, respectively.
Compound IC50 was calculated using GraphPad Prism 5 software by fitting according to the following equation: […]

“2-((1R,5S,6S)-3-(7,7-difluoro-2-((S)-2-(trifluoromethyl)azetidin-1-yl)-6,7-dihydro-5H-cyclopenta[d]pyrimidin-4-yl)-3-azabicyclo[3.1.1]heptan-6-yl)acetic acid [Isomer 2 of compound 20]” was tested. Which IC50 (CYP1A2) did it give?
Its IC50 is greater than 50 µM.

And the IC50 (CYP2C19)?
Its IC50 is greater than 50 µM.

What about the IC50 (CYP2C9) of the same substance?
The IC50 was greater than 50 µM.

And the “inhibitory effect on the hERG potassium channel current (in words)” value (hERG potassium channel; CHO cells stably expressing hERG)?
Its value is “basically has no inhibitory effect”.

And the IC50 (hERG potassium channel; CHO cells stably expressing hERG, whole cell patch-clamp, read-out: IC50 for inhibiting the hERG potassium channel current)?
The IC50 was greater than 40 µM.

And the “Inhibition rate at the highest concentration tested” value (hERG potassium channel; hERG current, 40 μM, CHO cells)?
The value was 20.4 ± 3.58%@40 μM.
